Source: patent publication US20210188930A1 (priority 2018, published 2021)

Test system: NCI60 cell lines
Assay: NCI60 cell panel sensitivity profile (retrieved by CellMiner)
Type: cell-based, human
Conditions: Struc. / WT / Null / Others

potassium arsenite
selectivity among NCI60 cell lines by p53 status (G150), in words: selectively inhibit structural hotspot mp53s expressing NCI60 cell lines
